For 65 compounds, displacement results are on record in PubChem BioAssay AID1817 (Sanford-Burnham Center for Chemical Genomics, 2009).

The chains behind the UniProt entries cited, without tags or fusion partners. Where a name states a change or a piece, a line headed by the entry shows the natural chain unless it says otherwise.
UniProt Q8IUQ4: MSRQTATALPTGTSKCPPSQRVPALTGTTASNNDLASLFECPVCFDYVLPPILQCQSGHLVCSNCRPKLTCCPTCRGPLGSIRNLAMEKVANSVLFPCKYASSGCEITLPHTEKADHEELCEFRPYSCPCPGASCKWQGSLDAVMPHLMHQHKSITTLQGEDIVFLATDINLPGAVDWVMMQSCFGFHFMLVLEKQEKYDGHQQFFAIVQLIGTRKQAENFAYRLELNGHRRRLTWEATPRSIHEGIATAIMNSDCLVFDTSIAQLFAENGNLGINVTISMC

Molecules are shown by their SMILES. Only a part is listed here, and it is no random draw. Potency and affinity values are given separately. Calls of active or inactive are those of the source.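 Rule for the calls: active = displacement of at least 50% at 20 µM, with a fluorescence ratio check between 0.3 and a set limit; inactive = the rest.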

This test addresses E3 ubiquitin-protein ligase SIAH1 (Homo sapiens) (UniProt Q8IUQ4). The experiment in a line: Siah-1 peptide-binding antagonists, primary screen, biochemical, fluorescence polarization, rhodamine-plectin, uHTS (AID 1817).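 Note: plate controls were Siah plus tracer with DMSO for no effect and tracer alone without Siah for full effect.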 The conditions noted are these: Siah-1 / rhodamine-plectin peptide fluorescence polarization; at 20 µM; hits give high values.
Consider `CCNC(=S)/N=C(\N)N[N+](=O)[O-]`, for which the displacement was inactive: -0.2%.
Under `O=C(NC1CCS(=O)(=O)C1)NP(=S)(Oc1ccccc1)Oc1ccccc1` (stereo not given) stands inactive: 3%; under `c1ccc(-c2nn[nH]n2)c(-c2nn[nH]n2)c1`, inactive: 6.5%; under `Cc1ccc(NP(=O)(Oc2cccc(C)c2)Oc2cccc(C)c2)nc1`, inactive: -2.7%.
For the compound `CCOC(=O)NC(Sc1ccccc1)C(Cl)(Cl)Cl` (stereo not given), the displacement was inactive: -1%.
As for `COC(=O)c1cc2c(s1)N=C(c1ccccc1)N(C)P2(=O)N1CCOCC1` (stereo not given), the displacement was inactive: 0.8%.
Under `CC(=O)NC(SC(=S)N(CC(C)C)CC(C)C)C(Cl)(Cl)Cl` (stereo not given) stands inactive: 8.1%; under `Cc1ccc(OP(=O)(Nc2ccccn2)Oc2ccc(C)cc2)cc1`, inactive: -4.4%; under `O=C(OC1CN2CCC1CC2)c1ccccc1` (stereo not given), inactive: -1.6%.
In the case of `CCC(=O)N1C2C3N(C(=O)CC)C1C1N(C(=O)CC)C(C(N1C(=O)CC)N3C(=O)CC)N2C(=O)CC`, the displacement was inactive: -1.6%.
Under `Cc1ccccc1OP(=O)(Nc1ccccn1)Oc1ccccc1C` stands inactive: -5.7%.
In the case of `CN(C)C(=O)Oc1noc2ccccc12` it was inactive: 5.2%; in that of `O=c1c2cc([N+](=O)[O-])ccc2[nH]c2c([N+](=O)[O-])cc([N+](=O)[O-])cc12`, inactive: 59.5%.
Take `O=P1(Nc2nc3ccc(Cl)cc3s2)COc2ccccc2O1` (stereo not given): the displacement is inactive: 3.2%.
Turning to `CCOc1ccc(C2=NCC(CBr)S2)cc1` (stereo not given), the displacement is inactive: -2.3%.
Under `CC(C)(C)C(=O)NC(Sc1ccccc1)C(Cl)(Cl)Cl` (stereo not given) stands inactive: -2.5%; under `CC(=O)c1ccc(N2CC2c2ccncc2)cc1` (stereo not given), inactive: -1.4%; under `C[C@@H]1C=CCP(=O)(Oc2ccccc2)O1` (stereo not given in full), inactive: 2.1%.
In the case of `C[C@H]1OP(=O)(Oc2ccccc2)C[C@@H]2O[C@@H]21` (stereo not given in full) it was inactive: 5.5%.
Under `CC(=O)Nc1ccc([As](=O)(O)O)c(O)c1` stands inactive: -1%; under `CC(=O)Nc1ccc(Oc2c([N+](=O)[O-])cc([N+](=O)[O-])cc2[N+](=O)[O-])cc1`, inactive: 4.4%; under `CC(C)C(=O)NC(Sc1ccccc1)C(Cl)(Cl)Cl` (stereo not given), inactive: 1.5%.
With `O=P(Nc1nccs1)(c1ccccc1)c1ccccc1`, the displacement was inactive: 3.8%.
Consider `c1nnnn1CCn1cnnn1`, for which the displacement was inactive: 3.5%.
Under `O=P(Nc1ccccn1)(c1ccc(Br)cc1)c1ccc(Br)cc1` stands inactive: -4%.
Under `CN(C)C1(CNC(=O)c2ccc(Cl)c(S(N)(=O)=O)c2)CCCCC1` stands inactive: -3.5%; under `O=P(Nc1nc2ccccc2s1)(c1ccccc1)c1ccccc1`, inactive: 6.6%.
Under `C[C@H]1OP(=O)(Oc2ccccc2)[C@H](O)[C@H](O)[C@H]1N=[N+]=[N-]` (stereo not given in full) stands inactive: 0.6%; under `O=[N+]([O-])c1ccc(O)c(/C=N/Nc2ccc([N+](=O)[O-])cc2[N+](=O)[O-])c1`, inactive: 47%.
With `CC(=O)NC(SC(=S)N(C)C)C(Cl)(Cl)Cl` (stereo not given), the displacement was inactive: 1%.
With `O=[N+]([O-])c1ncn(CCn2cnc([N+](=O)[O-])n2)n1`, the displacement was inactive: 14%.
Under `O=[As](O)(c1ccccc1)c1ccc(O)cc1` stands inactive: 8.6%.
For the compound `Nc1ccc([As](=O)(O)c2ccc([N+](=O)[O-])cc2)cc1`, the displacement is inactive: -1.9%.
Under `C(Cc1nn[nH]n1)Cc1nn[nH]n1` stands inactive: 6.4%.
In the case of `O=C(OC1CN2CCC1CC2)c1cccc(Cl)c1` (stereo not given) it was inactive: -4%; in that of `O=C(Nc1cc([As](=O)(O)O)ccc1O)c1ccccc1`, inactive: -0.45%.
Under `CC(C)(C)C(=O)NC(Sc1ccncn1)C(Cl)(Cl)Cl` (stereo not given) stands inactive: 0.4%; under `O=[N+]([O-])c1ncn(CCn2ncnc2[N+](=O)[O-])n1`, inactive: -2%.
On to `O=[N+]([O-])c1cccc(NC2=NCC(CBr)S2)c1` (stereo not given), for which the displacement is inactive: -5.5%.
Under `O=C(O)CNc1ccc([As](=O)(O)O)cc1` stands inactive: 9.05%.
For `COc1ccc(C2=NCC(CBr)S2)cc1` (stereo not given), the displacement is inactive: 1.6%.
Turning to `O=[N+]([O-])c1cccc2n[nH]nc12`, the displacement is inactive: 3.3%.
In the case of `CC(=O)N1C2C3N(C(C)=O)C1C1N(C(C)=O)C(C(N1C(C)=O)N3C(C)=O)N2C(C)=O` it was inactive: 4.4%; in that of `Cc1ccc(NP(=O)(Oc2ccccc2)Oc2ccccc2)nc1`, inactive: -1.9%; in that of `CCc1nc2c(n1)c1c(non1O)c1c2no[n+]1[O-]`, inactive: 0.4%.
In the case of `O=[N+]([O-])c1cc([N+](=O)[O-])c(CCNc2ccccc2)c([N+](=O)[O-])c1` it was inactive: 1.3%.
Turning to `Nc1ccc([As](=O)(O)c2ccc(N)cc2)cc1`, the displacement was inactive: 1.7%.
For the compound `C[N+]1=C2C=CC=CC=C2SC12C([N+](=O)[O-])=CC([N+](=O)[O-])=C[C-]2[N+](=O)[O-]` (stereo not given), the displacement was inactive: 34.4%.
Take `CCN(/C(=N/P(=O)(N1CCOCC1)N1CCOCC1)N1CCOCC1)c1ccc(OC)cc1`: the displacement is inactive: 0.1%.
Turning to `CC(C)=N/N=C(\N)N[N+](=O)[O-]`, the displacement was inactive: 6.7%.
In the case of `CN(C)C(=O)OCCc1n(C)cc[n+]1C` it was inactive: -1.7%.
In the case of `CC1CCN(C(=O)Oc2c(Cl)cc(Cl)c3cccnc23)CC1` it was inactive: -5.4%.
In the case of `NC(=O)c1cc([N+](=O)[O-])cc([N+](=O)[O-])c1N` it was inactive: -5%; in that of `Cc1ccc(N/C(=N/P(=O)(N2CCOCC2)N2CCOCC2)N2CCOCC2)cc1`, inactive: 6.1%; in that of `COc1ccccc1OP(=O)(Nc1ccc(C)cn1)Oc1ccccc1OC`, inactive: 6.6%.
Consider `Cc1ccc(OP(=O)(Nc2nccs2)Oc2ccc(C)cc2)cc1`, for which the displacement is inactive: 11.6%.
On to `Clc1ccc(Cl)c(NC2=NCC(CBr)S2)c1` (stereo not given), for which the displacement is inactive: -5%.
Regarding `CN1CCCC(OC(=O)C(c2ccccc2)c2ccccc2)C1` (stereo not given), the displacement is inactive: -5.6%.
For `CC(C)CC(=O)NC(Sc1ccc(Cl)cc1)C(Cl)(Cl)Cl` (stereo not given), the displacement is inactive: 4.9%.
As for `Nc1cc(N)c2nonc2c1[N+](=O)[O-]`, the displacement was inactive: -3.8%.
On to `Oc1ccccc1CNc1ccccn1`, for which the displacement is inactive: -5.2%.
Under `Cc1c2non([O-])c-2c(C)[n+](=O)[n+]1[O-]` stands inactive: -1.2%.
Under `O=C(NC(Sc1ccncn1)C(Cl)(Cl)Cl)c1ccccc1` (stereo not given) stands inactive: 15.4%.
For `O=C(O)c1ccccc1[As](=O)(O)O`, the displacement is inactive: -3.75%.
With `CC(=O)Nc1ccc([As](=O)(O)O)cc1`, the displacement is inactive: 2.6%.
